Data on 24 molecules can be found in PubChem BioAssay AID1706 (The Scripps Research Institute Molecular Screening Center, 2009).

In general, inhibition refers to the change of the read-out against control, counted positive when it falls.

Only a part is listed here, and it is no random draw. Some results for these compounds are left out of this collection, so the calls shown say nothing about other tests. Active and inactive are the calls of the source. Cut-off read from the data, not from the text of the source: active = inhibition above about 12%; inactive = the rest.

The experiment deals with Replicase polyprotein 1ab (Severe acute respiratory syndrome coronavirus) (UniProt P0C6X7). The experiment can be described thus: SARS-CoV 3CLpro protease inhibitors, primary screen, biochemical, quenched FRET (AID 1706). As to conditions: recombinant SARS-CoV 3CLpro, quenched FRET peptide cleavage; at 6 µM; stronger effect = higher value.
Take `O=C(OC1CN2CCC1CC2)C(CO)(c1ccccc1)c1ccccc1` (centres undefined): the inhibition was inactive: -2.42%.
The result for `COc1ccc(Br)c(C(=O)NCC2(N3CCCCC3)CCCCC2)c1` reads inactive: 5.1%; that for `CC(C)Oc1ccc(C(=O)NCC2(N(C)C)CCCCC2)cc1`, inactive: 3.58%; that for `CN(C)c1cccc(C(=O)NCC2(N(C)C)CCCCC2)c1`, inactive: 4.6%.
In the case of `CN(C)C1(CNC(=O)c2ccc(Br)cc2)CCCCC1`, the inhibition was inactive: -1.82%.
Consider `COc1cc(C(=O)NCC2(N(C)C)CCCCC2)c([N+](=O)[O-])cc1OC`, for which the inhibition was inactive: 4.3%.
For `COc1cccc(C(=O)NCC2(N3CCCCC3)CCCCC2)c1` the value was inactive: 2.17%; for `COc1ccc(Cl)cc1C(=O)NCC1(N(C)C)CCCCC1`, inactive: 1.66%; for `O=C(NCC1(N2CCCCC2)CCCCC1)c1cccc(Cl)c1`, inactive: 2.35%.
For `Cc1ccccc1C(=O)NCC1(N2CCCCC2)CCCCC1` the value was inactive: -2.44%; for `CN(C)c1ccc(C(=O)NCC2(N(C)C)CCCCC2)cc1`, inactive: 2.59%; for `CN(C)C1CCCC1OC(=O)C(O)(c1ccccc1)c1ccccc1` (centres undefined), inactive: -1.33%.
For `C=CCN1CCN(CCOC(=O)C(O)(c2ccccc2)c2ccccc2)CC1` the value was inactive: 2.02%; for `O=C(NCC1(N2CCCCC2)CCCCC1)c1cc(F)c(F)cc1Cl`, inactive: 3.71%.
On to `COc1ccc(C(=O)NCC2(N(C)C)CCCCC2)cc1`, for which the inhibition is inactive: 1.38%.
For `CCN1CCCC(OC(=O)C2(O)c3ccccc3C=Cc3ccccc32)C1` (centres undefined) the value was inactive: -2.52%; for `Cc1cc(C(=O)NCC2(N3CCCCC3)CCCCC2)ccc1[N+](=O)[O-]`, inactive: -0.96%.
The result for `O=C(NCC1(N2CCCCC2)CCCCC1)c1cccc(Br)c1` reads inactive: 1.34%; that for `O=C(NCC1(N2CCCCC2)CCCCC1)c1cc([N+](=O)[O-])ccc1Cl`, inactive: 4.47%; that for `CN1[C@@H]2CC[C@H]1CC(OC(=O)C(O)(c1ccccc1)c1ccccc1)C2` (some centres undefined), inactive: -1.93%.
The result for `CCN(CC)CC(C)C(C)OC(=O)C(O)(c1ccccc1)c1ccccc1` (centres undefined) reads inactive: 1.89%; that for `COc1cc(SC)ccc1C(=O)NCC1(N(C)C)CCCCC1`, inactive: 2.17%; that for `CC(C)N1C(=O)CC2(CCN(CCOC(=O)C(O)(c3ccccc3)c3ccccc3)CC2)C1=O`, inactive: 4.51%.
For the molecule `Cc1ccc(C(=O)NCC2(N3CCCCC3)CCCCC2)cc1`, the inhibition was inactive: -2.14%.
